Earlier results as cited in PMC10112232, “Comparison of Toxicities among Different Bumped Kinase Inhibitor Analogs for Treatment of Cryptosporidiosis” (Antimicrobial Agents and Chemotherapy, 2023).

Details: cited from earlier work

SMILES: CCOc1ccc2cc(-c3nn(C(C)(C)CCO)c(N)c3C(N)=O)ccc2c1 [BKI-1770]
- Solubility at pH 2 (pH 2): 75 μM
- Solubility at pH 6.5 (pH 6.5): 60.2 μM
